# Ab-91 heavy chain CDR variants: yeast mating affinities

The measurements come from Engelhart et al. 2022 (doi:10.1038/s41597-022-01779-4) through the FLAb antibody collection.

Binding partner: SARS-CoV-2 spike HR2 peptide, sequence PDVDLGDISGINAS.

Each scFv is VL, three GGGGS repeats, VH, as in the parent Ab-91, and differs from it in the CDRs of the heavy chain only.
VL: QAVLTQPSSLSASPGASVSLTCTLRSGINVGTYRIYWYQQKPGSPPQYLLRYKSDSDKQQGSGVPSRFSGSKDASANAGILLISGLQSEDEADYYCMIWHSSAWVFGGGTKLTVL
VH: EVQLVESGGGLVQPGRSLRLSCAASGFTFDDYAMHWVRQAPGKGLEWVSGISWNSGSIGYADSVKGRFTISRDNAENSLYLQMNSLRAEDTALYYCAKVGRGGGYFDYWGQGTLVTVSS

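Variants in AAYL51 differ from the parent at up to three CDR positions; double and triple changes were sampled at random. The scFvs were displayed on barcoded MATa yeast, the peptide on MATalpha yeast. Mating (16 h, 30 °C) was followed by selection of diploids and sequencing of their barcodes. The ratio of observed to expected reads was calibrated, replicate by replicate, on BCL2-family standards whose Kd was known from biolayer interferometry. There are three technical replicates.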

Substitutions are numbered in sequence along the VH above, starting at 1 (not Kabat).
Every variant below is changed at V99 of the VH (sequential numbering).
Numbers give log10(Kd / nM), so 0 is 1 nM and 3 is 1 µM. Smaller is tighter.
Replicates are averaged; those with no signal do not enter the mean.
A pair that was not seen in that replicate is written "nd"; this usually means weak binding, but a binder can also be missed.

- I51Y/K65Y/V99S: nd, 4.81, nd
- I51R/N54A/V99R: 4.43, 4.92, 5.25 (mean 4.87)
- G59E/V99R: nd, 5.12, nd
- N54W/V99Q/R101G: nd, 3.45, nd
- V99W/F106K: nd, nd, nd
- F29G/V99F/D107W: nd, nd, nd
- I51Q/V99F/F106Y: 4.88, nd, 5.18 (mean 5.03)
- V99Q/G102A/G104Q: 1.54, 1.66, 1.12 (mean 1.44)
- S57V/S63C/V99Y: 2.97, nd, nd
- S57R/V99Q: 4.66, 5.84, nd (mean 5.25)
- G26C/M34E/V99I: nd, 5.18, nd
- H35V/I51M/V99L: nd, nd, nd
- I51H/V99L/G103H: nd, nd, nd
- F29I/G56Q/V99T: 4.14, 4.11, 3.74 (mean 4.00)
- V99D/G100C/G102Y: 4.24, nd, 5.19 (mean 4.71)
- V99L/G104N/D107L: nd, nd, nd
- A33K/V99Q: 4.62, 3.72, nd (mean 4.17)
- G59P/Y60P/V99I: 4.27, 5.22, nd (mean 4.75)
- V99M/F106D: 1.43, 1.39, 0.96 (mean 1.26)
- I51S/A61E/V99F: nd, nd, 4.68
- S55C/V99Q: 4.32, nd, nd
- Y60F/V99M/F106Y: 3.73, 5.80, nd (mean 4.76)
- S55G/V99Q/G100P: 1.82, 1.84, 1.29 (mean 1.65)
- I58Q/V99Q/Y108R: nd, nd, nd
- G26F/V99T/D107E: nd, nd, nd
- F27G/G59V/V99L: nd, nd, nd
- H35V/S55H/V99S: 3.65, nd, nd
- D31P/I51K/V99C: nd, nd, nd
- D31A/G59H/V99N: nd, nd, nd

Again, the first 2 entries without any signal:

| changes | log10 Kd, replicates | log10 Kd (nM), mean |
|---|---|---|
| V99W/F106K | nd, nd, nd | nd |
| F29G/V99F/D107W | nd, nd, nd | nd |

Empty control strains, which show no peptide, gave a signal in 21% of pairings with library AAYL51; the median was 4.54 and 95% of these signals were weaker than 3.26. No background was subtracted.